Results as given in article PMC5321639, “Design and pharmacodynamics of recombinant NZ2114 histidine mutants with improved activity against methicillin-resistant Staphylococcus aureus” (AMB Express, 2017).
In brackets after ≈: the same amount, converted by molar mass. Read-outs that look alike come from different tables or passages of the source. Marks after values point to notes of the source that are not given here.

Legend:
S. choleraesuis CVCC503 = assay: MIC assay; type: cell-based; conditions: MHB, 1 × 10^5 CFU/ml, 37 °C, 18–24 h, triplicate
Procedure: (§1) The peptide solutions were diluted twofold with the range of final concentrations were 0.015–32 µg/ml (0.003–7.273 µM) for purified H1, H2, H3, H6, and H8. The test strains were grown in MHB medium at 37 °C to an OD600 of 0.4 and diluted to 1 × 10^5 CFU/ml. The 10 µl peptide and 90 µl cell suspension were added into each well. All assays were performed in triplicate. The antimicrobial activity of NZ2114 and vancomycin were tested as positive controls. The plates were incubated at 37 °C for 18–24 h. MIC was defined as the lowest peptide concentration of ones at which there was no visible growth (Tian et al. [2009]).

S. pullorum CVCC1789 = assay: MIC assay; type: cell-based; conditions: MHB, 1 × 10^5 CFU/ml, 37 °C, 18–24 h, triplicate
Procedure: as §1

S. typhimurium ATCC14028 = assay: MIC assay; type: cell-based; conditions: MHB, 1 × 10^5 CFU/ml, 37 °C, 18–24 h, triplicate
Procedure: as §1

S. pneumoniae CVCC2350 = assay: MIC assay; type: cell-based, Streptococcus pneumoniae; conditions: MHB, 1 × 10^5 CFU/ml, 37 °C, 18–24 h, triplicate
Procedure: as §1

S. pneumoniae CVCC1.8722 = assay: MIC assay; type: cell-based, Streptococcus pneumoniae; conditions: MHB, 1 × 10^5 CFU/ml, 37 °C, 18–24 h, triplicate
Procedure: as §1

S. suis CVCC3928 = assay: MIC assay; type: cell-based, Streptococcus suis; conditions: MHB, 1 × 10^5 CFU/ml, 37 °C, 18–24 h, triplicate
Procedure: as §1

S. suis CVCC606 = assay: MIC assay; type: cell-based, Streptococcus suis; conditions: MHB, 1 × 10^5 CFU/ml, 37 °C, 18–24 h, triplicate
Procedure: as §1

S. suis CVCC3309 = assay: MIC assay; type: cell-based, Streptococcus suis; conditions: MHB, 1 × 10^5 CFU/ml, 37 °C, 18–24 h, triplicate
Procedure: as §1

S. aureus ATCC43300 [1] = conditions: NZ2114 combined with ampicillin; ref Zhang et al. [2014]; cited from earlier work
Procedure: The synergism effect of H1, H2 and H3 with traditional antibiotics which have different action mechanisms (vancomycin and ampicillin on cell wall, rifampicin on RNA, ciprofloxacin on DNA) was evaluated (Table 4). […] Meanwhi ...

E. coli CVCC195 = assay: MIC assay; type: cell-based, Escherichia coli; conditions: MHB, 1 × 10^5 CFU/ml, 37 °C, 18–24 h, triplicate
Procedure: as §1

E. coli CICC21530 = assay: MIC assay; type: cell-based, Escherichia coli; conditions: MHB, 1 × 10^5 CFU/ml, 37 °C, 18–24 h, triplicate
Procedure: as §1

[2] = test system: S. aureus ATCC43300 (MRSA); conditions: data from previous results, ref Zhang et al. [2014], cited from earlier work
Source text: Their characteristics of narrow-spectrum antibiot ...

[3] = ref Zhang et al. [2014], cited from earlier work
Source text: (§2) Although the values were higher than NZ2114 due to the high charge and hydrophilicity, they were still very low in the range of MICs. […] Owing to contribution from the three pairs of disulfide bond into th ...

rabbit and human RBCs = conditions: ref Yang et al. [2011], Zhang et al. [2014]; cited from earlier work
Source text: as §2

S. aureus ATCC25923 = conditions: data from previous results; ref Zhang et al. [2014]; cited from earlier work
Source text: (§3) Table 2 MIC assays of H1, H2, H3, H6, H8, NZ2114, and vancomycin against G^+ and G^− pathogens | column: MIC (μM) / NZ

S. aureus ATCC6538 = conditions: data from previous results; ref Zhang et al. [2014]; cited from earlier work
Source text: as §3

S. enteritidis CMCC50336 = assay: MIC assay; type: cell-based, Salmonella enteritidis; conditions: MHB, 1 × 10^5 CFU/ml, 37 °C, 18–24 h, triplicate
Procedure: as §1

Streptococcus pneumoniae = conditions: S. pneumoniae; ref Ostergaard et al. [2009]; Zhang et al. [2014]; Andes et al. [2009]; Xiong et al. [2011]; cited from earlier work
Source text: (§4) Antimicrobial peptides (AMPs) are potent drugs known for their broad-spectrum of antimicrobial properties and particularly against antibiotic-resistant bacteria (Brogden and Brogden [2011]). However, some flaws hamper the clinical usage of AMPs, such as toxicity to normal mammalian cells and the lack of a cost-effective way of commercial-scale production (Cao et al. [2015]).

S. aureus = conditions: ref Ostergaard et al. [2009], Zhang et al. [2014], Andes et al. [2009], Xiong et al. [2011]; cited from earlier work
Source text: as §4

S. aureus ATCC43300 [4] = assay: Postantibiotic effect (PAE); type: cell-based, Staphylococcus aureus; conditions: 2× MIC, 2 h exposure at 37 °C, 1 × 10^8 CFU/ml, drug removed by 1:10^3 dilution; mean ± SD, n = 3
Procedure: After 2 h, the drug was removed by diluting 1:10^3 into the MHB and incubated at 37 °C, 250 rpm. The sample was taken to plate counting every 1 h until the bacterial cultures become turbid. The PAE was calculated by the following formula: PAE = T − C, where T is the time needed for the count of CFU in the test culture to increase 1 log10 (10-fold) above the 0 h and C is the time needed for the count of CFU in the untreated control culture to increase 1 log10 above the 0 h (Giguère et al. [2012]).

## CC[C@H](C)[C@@H]1NC(=O)[C@H](CO)NC(=O)[C@H](CCCCN)NC(=O)[C@@H]2CSSC[C@@H](C(=O)N[C@@H](Cc3ccc(O)cc3)C(=O)O)NC(=O)[C@H](CCCCN)NC(=O)[C@@H]3CSSC[C@H](NC(=O)[C@H](CCCNC(=N)N)NC(=O)[C@H](CC(C)C)NC(=O)[C@H](CC(=O)O)NC(=O)[C@H](CC(=O)O)NC(=O)[C@H](CCC(=O)O)NC(=O)[C@H](CC(N)=O)NC(=O)[C@H](Cc4c[nH]c5ccccc45)NC(=O)[C@@H]4CCCN4C(=O)CNC(=O)[C@H](CC(N)=O)NC(=O)[C@@H](NC(=O)CNC(=O)[C@H](Cc4ccccc4)NC(=O)CN)CSSC[C@H](NC(=O)[C@H](Cc4ccc(O)cc4)NC(=O)CNC(=O)CNC(=O)[C@H](CCCCN)NC(=O)[C@H](Cc4ccc(O)cc4)NC(=O)CNC(=O)[C@H](CCCCN)NC1=O)C(=O)N[C@@H](C)C(=O)N[C@@H](CCCCN)C(=O)NCC(=O)NCC(=O)N[C@@H](Cc1ccccc1)C(=O)N[C@@H](C(C)C)C(=O)N3)C(=O)N[C@@H](Cc1c[nH]cn1)C(=O)N[C@@H](CC(N)=O)C(=O)N[C@@H](Cc1c[nH]cn1)C(=O)N2 [NZ2114]
S. choleraesuis CVCC503
  MIC: >7.273 µM
S. pullorum CVCC1789
  MIC: >7.273 µM
S. typhimurium ATCC14028
  MIC: >7.273 µM
S. pneumoniae CVCC2350
  MIC: 0.909 µM (≈ 4.01 µg/mL)
S. pneumoniae CVCC1.8722
  MIC: 0.454 µM (≈ 2 µg/mL)
S. suis CVCC3928
  MIC: 0.028 µM (≈ 0.124 µg/mL)
S. suis CVCC606
  MIC: 0.028 µM (≈ 0.124 µg/mL)
S. suis CVCC3309
  MIC: 0.028 µM (≈ 0.124 µg/mL)
S. aureus ATCC43300 [1]
  FICI: 0.125
E. coli CVCC195
  MIC: >7.273 µM
E. coli CICC21530
  MIC: >7.273 µM
[2]
  MIC: 0.909 µM (≈ 4.01 µg/mL)
[2]; listed as NZ
  MIC: 0.909^a μM
[3]; 100 °C
  activity maintained: 20%
[3]
  pH value of highest activity: 8.0
[3]; temperatures from 20 to 80 °C
  initial activity retained: above 80%
Rabbit and human RBCs
  hemolysis: no hemolysis
S. aureus ATCC25923
  MIC: 0.028^a μM
S. aureus ATCC6538
  MIC: 0.114^a μM
S. enteritidis CMCC50336
  MIC: >7.273 µM
Streptococcus pneumoniae
  MIC50: 0.25 µg/mL (≈ 0.0567 µM)
S. aureus
  MIC50: 2 µg/mL (≈ 0.453 µM)
S. aureus ATCC43300 [4]
  PAE: 1.43 h
